Test results as given in EP4840861A1, “PREPARATION AND USE OF 7-FLUOROALKYL SUBSTITUTED CAMPTOTHECIN DERIVATIVE” (dated 2026).

Key:
[1] = system: human lung cancer cells NCI-H1975; experiment: Inhibitory activity against tumor cell growth (CCK-8, 72 h), NCI-H1975; conditions: read-out: IC50 (nM) values of compounds for inhibiting tumor cell growth, NCI-H1975, 72 h incubation
Method: (§1) Human esophageal cancer cells OE33, human breast cancer cells MDA-MB-231, human gastric cancer cells NCI-N87, human lung cancer cells NCI-H1975, and human breast cancer cells SK-BR-3 were cultured in RPMI1640 (Cellmax) containing 10% fetal bovine serum (Cellmax). Tumor cells in the exponential growth phase were diluted with the medium to 1 × 10^5 cells/mL to afford a cell suspension. The cell suspension was added to a 96-well cell culture plate at 100 µL/well, and cultured in a 37°C and 5% CO2 incubator overnight. On the next day, a test compound was diluted with the medium to concentrations of 10,000 nM, 2,000 nM, 400 nM, 80 nM, 16 nM, 3.2 nM, 0.64 nM, and 0.13 nM. Compound dilutions were added to the 96-well cell culture plate at 2 µL/well, with three replicate wells for each concentration. For negative control and blank control groups without the test compound, a diluent was added at 2 µL/well. After sample addition, the 96-well cell culture plate was placed back into a 37°C and 5% CO2 incubator for further incubation of cells for 72 h. After the incubation was completed, the cell culture plate was taken out, the medium in each well was discarded using a pipette, and then 100 µL of medium containing 10% CCK-8 was added to each well for further incubation of cells at 37°C for 3 h. After the incubation was completed, the culture plate was taken out and placed in a microplate reader while being protected from light. The absorbance was measured with a reference wavelength of 630 nm and a detection wavelength of 450 nm. Based on absorbance values, IC50 values were calculated using four-parameter logistic regression in GraphPad (Table 1). Dxd was used as a positive control drug, with a structural formula [drawing 59]

[2] = system: Human esophageal cancer cells OE33; experiment: Inhibitory activity against tumor cell growth (CCK-8, 72 h), OE33; conditions: read-out: IC50 (nM) values of compounds for inhibiting tumor cell growth, OE33, 72 h incubation
Method: as §1

[3] = system: human breast cancer cells SK-BR-3; experiment: Inhibitory activity against tumor cell growth (CCK-8, 72 h), SK-BR-3; conditions: read-out: IC50 (nM) values of compounds for inhibiting tumor cell growth, SK-Br-3, SK-Br-3 cells, 72 h incubation
Method: as §1

[4] = system: human breast cancer cells MDA-MB-231; experiment: Inhibitory activity against tumor cell growth (CCK-8, 72 h), MDA-MB-231; conditions: read-out: IC50 (nM) values of compounds for inhibiting tumor cell growth, MDA-MB-231, MDA-MB-231 cells, 72 h incubation
Method: as §1

[5] = system: human gastric cancer cells NCI-N87; experiment: Inhibitory activity against tumor cell growth (CCK-8, 72 h), NCI-N87; conditions: read-out: IC50 (nM) values of compounds for inhibiting tumor cell growth, NCI-N87, 72 h incubation
Method: as §1

IC50 [1] [nM] | IC50 [2] [nM] | IC50 [3] [nM] | IC50 [4] [nM] | IC50 [5] [nM] | SMILES
< 10 | < 10 | < 10 | 10 to 100 | < 10 | CC[C@@]1(O)C(=O)OCc2c1cc1n(c2=O)Cc2c-1nc1cc(F)c(C)cc1c2CN[C@H](C)C(F)(F)F
< 10 | < 10 | < 10 | 10 to 100 | < 10 | CC[C@@]1(O)C(=O)OCc2c1cc1n(c2=O)Cc2c-1nc1cc3c(cc1c2CN[C@@H](C)C(F)(F)F)OCO3
< 10 | < 10 | < 10 | 10 to 100 | < 10 | CC[C@@]1(O)C(=O)OCc2c1cc1n(c2=O)Cc2c-1nc1cc(F)c(F)cc1c2CCN[C@H](C)C(F)(F)F
< 10 | < 10 | < 10 | 100 to 500 | < 10 | CC[C@@]1(O)C(=O)OCc2c1cc1n(c2=O)Cc2c-1nc1cc3c(cc1c2CCN[C@@H](C)C(F)(F)F)OCO3
< 10 | < 10 | < 10 | 100 to 500 | < 10 | CC[C@@]1(O)C(=O)OCc2c1cc1n(c2=O)Cc2c-1nc1cc(F)c(C)cc1c2CNCC(F)(F)F
10 to 100 | < 10 | < 10 | 100 to 500 | < 10 | CC[C@@]1(O)C(=O)OCc2c1cc1n(c2=O)Cc2c-1nc1cc(F)c(C)cc1c2CCNC(C)(C)C(F)(F)F
10 to 100 | < 10 | < 10 | 100 to 500 | < 10 | CC[C@@]1(O)C(=O)OCc2c1cc1n(c2=O)Cc2c-1nc1ccccc1c2CCNC(C)(C)C(F)(F)F
10 to 100 | < 10 | < 10 | 10 to 100 | < 10 | CC[C@@]1(O)C(=O)OCc2c1cc1n(c2=O)Cc2c-1nc1cc(F)c(F)cc1c2CCNCC(F)(F)F
< 10 | < 10 | < 10 | 10 to 100 | < 10 | CC[C@@]1(O)C(=O)OCc2c1cc1n(c2=O)Cc2c-1nc1cc(F)c(C)cc1c2CNC(C)(C)C(F)(F)F
10 to 100 | < 10 | < 10 | 10 to 100 | 10 to 100 | CC[C@@]1(O)C(=O)OCc2c1cc1n(c2=O)Cc2c-1nc1cc(F)c(C)cc1c2CCN[C@H](C)C(F)(F)F
< 10 | < 10 | < 10 | 10 to 100 | < 10 | CC[C@@]1(O)C(=O)OCc2c1cc1n(c2=O)Cc2c-1nc1cc3c(cc1c2CNCC(F)(F)F)OCO3
< 10 | < 10 | < 10 | 10 to 100 | < 10 | CC[C@@]1(O)C(=O)OCc2c1cc1n(c2=O)Cc2c-1nc1cc(F)c(F)cc1c2CNCC(F)(F)F

Continued, molecule first:

SMILES | IC50 [1] [nM] | IC50 [2] [nM] | IC50 [3] [nM] | IC50 [4] [nM] | IC50 [5] [nM]
CC[C@@]1(O)C(=O)OCc2c1cc1n(c2=O)Cc2c-1nc1ccccc1c2CCN[C@@H](C)C(F)(F)F | 10 to 100 | < 10 | < 10 | 10 to 100 | < 10
CC[C@@]1(O)C(=O)OCc2c1cc1n(c2=O)Cc2c-1nc1ccccc1c2CN[C@@H](C)C(F)(F)F | 10 to 100 | < 10 | < 10 | 100 to 500 | < 10
CC[C@@]1(O)C(=O)OCc2c1cc1n(c2=O)Cc2c-1nc1cc(F)c(F)cc1c2CN[C@@H](C)C(F)(F)F | < 10 | < 10 | < 10 | 10 to 100 | < 10
CC[C@@]1(O)C(=O)OCc2c1cc1n(c2=O)Cc2c-1nc1ccccc1c2CNCC(F)(F)F | 10 to 100 | < 10 |  | 100 to 500 | < 10
CC[C@@]1(O)C(=O)OCc2c1cc1n(c2=O)Cc2c-1nc1cc3c(cc1c2CN[C@H](C)C(F)(F)F)OCO3 | 10 to 100 | < 10 | < 10 | 10 to 100 | < 10
CC[C@@]1(O)C(=O)OCc2c1cc1n(c2=O)Cc2c-1nc1cc(F)c(C)cc1c2CN[C@@H](C)C(F)(F)F | < 10 | < 10 | < 10 | 10 to 100 | < 10
CC[C@@]1(O)C(=O)OCc2c1cc1n(c2=O)Cc2c-1nc1cc(F)c(C)c3c1c2[C@@H](NC(=O)CO)CC3 | 10 to 100 | < 10 | < 10 | 100 to 500 | < 10
CC[C@@]1(O)C(=O)OCc2c1cc1n(c2=O)Cc2c-1nc1ccccc1c2CN[C@H](C)C(F)(F)F | 10 to 100 | < 10 | < 10 | 100 to 500 | < 10
CC[C@@]1(O)C(=O)OCc2c1cc1n(c2=O)Cc2c-1nc1cc(F)c(C)cc1c2CCN[C@@H](C)C(F)(F)F | < 10 | < 10 | < 10 | 10 to 100 | < 10
CC[C@@]1(O)C(=O)OCc2c1cc1n(c2=O)Cc2c-1nc1cc(F)c(C)cc1c2CCNCC(F)(F)F | < 10 | < 10 | < 10 | 100 to 500 | < 10
CC[C@@]1(O)C(=O)OCc2c1cc1n(c2=O)Cc2c-1nc1cc3c(cc1c2CCN[C@H](C)C(F)(F)F)OCO3 | < 10 | < 10 | < 10 | < 10 | < 10
CC[C@@]1(O)C(=O)OCc2c1cc1n(c2=O)Cc2c-1nc1ccccc1c2CCNCC(F)(F)F | 10 to 100 | < 10 | < 10 | 100 to 500 | < 10
CC[C@@]1(O)C(=O)OCc2c1cc1n(c2=O)Cc2c-1nc1cc(F)c(F)cc1c2CNC(C)(C)C(F)(F)F | < 10 | < 10 | < 10 | 10 to 100 | < 10
CC[C@@]1(O)C(=O)OCc2c1cc1n(c2=O)Cc2c-1nc1cc3c(cc1c2CNC(C)(C)C(F)(F)F)OCO3 | < 10 | < 10 | < 10 | 10 to 100 | < 10
CC[C@@]1(O)C(=O)OCc2c1cc1n(c2=O)Cc2c-1nc1ccccc1c2CNC(C)(C)C(F)(F)F | 10 to 100 | < 10 | < 10 | 100 to 500 | < 10
CC[C@@]1(O)C(=O)OCc2c1cc1n(c2=O)Cc2c-1nc1cc(F)c(F)cc1c2CN[C@H](C)C(F)(F)F | < 10 | < 10 | < 10 | 10 to 100 | < 10
CC[C@@]1(O)C(=O)OCc2c1cc1n(c2=O)Cc2c-1nc1cc(F)c(F)cc1c2CCN[C@@H](C)C(F)(F)F | 10 to 100 | < 10 | < 10 | 10 to 100 | < 10
